The values that follow are results of earlier work, collected in patent US20260224527A1, “USES OF ANTI-PSYCHOTIC AGENTS” (LB PHARMACEUTICALS INC., priority 2023, published 2026).

The chains behind the UniProt entries cited, without tags or fusion partners. Residues count along the entry.
UniProt P34969, 1-445 isoform P34969-2: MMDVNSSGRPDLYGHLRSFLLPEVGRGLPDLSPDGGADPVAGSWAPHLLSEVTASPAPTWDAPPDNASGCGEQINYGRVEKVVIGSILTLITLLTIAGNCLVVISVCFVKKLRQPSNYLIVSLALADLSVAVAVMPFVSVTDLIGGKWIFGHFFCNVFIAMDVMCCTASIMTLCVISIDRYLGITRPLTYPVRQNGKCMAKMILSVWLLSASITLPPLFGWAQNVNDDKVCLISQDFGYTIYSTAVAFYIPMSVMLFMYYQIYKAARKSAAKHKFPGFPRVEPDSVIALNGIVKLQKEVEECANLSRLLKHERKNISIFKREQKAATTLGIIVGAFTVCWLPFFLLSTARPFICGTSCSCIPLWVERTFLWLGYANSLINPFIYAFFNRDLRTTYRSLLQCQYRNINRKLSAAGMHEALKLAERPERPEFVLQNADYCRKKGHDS

The target in this data set is HT7a receptor (Homo sapiens, UniProt P34969). The conditions noted are these: cited from earlier work.

For `CCN1CCCC1CNC(=O)c1cc(S(=O)(=O)CC)c(N)cc1OC` (stereo not shown) [Amisulpride, 4-amino-N-(((1-ethyl-2-pyrrolidinyl)methyl)-5-(ethylsulfonyl))-2-methoxybenzamide], the Ki result is on record as “low double digit”.
